# Test results taken from publication PMC12280212.
# This is a selection; strong and weak results do not stand in their true shares.
# Target: Actin, cytoplasmic 1 (UniProt P60709)
# Assay: cross-linking mass spectrometry
substance,measurement,value
"Protein S100-A6, P06703",listed as a hit,yes
